The values below are quoted from earlier work in paper PMC6173998.

For the data set, the target named is FXIa (Homo sapiens) (UniProt P03951).

By Ki is commonly meant a measure of affinity in units of concentration, obtained from inhibition or displacement. With aprotinin (from UniProt P00974), the Ki is 288 nM.
